The text below walks through data of US20200079766A1, “MONOCYCLIC OGA INHIBITOR COMPOUNDS” (Janssen Pharmaceutica NV, priority 2016, published 2020).

Chains of the proteins cited; added tags and fusions are not shown.
UniProt O60502, whole entry: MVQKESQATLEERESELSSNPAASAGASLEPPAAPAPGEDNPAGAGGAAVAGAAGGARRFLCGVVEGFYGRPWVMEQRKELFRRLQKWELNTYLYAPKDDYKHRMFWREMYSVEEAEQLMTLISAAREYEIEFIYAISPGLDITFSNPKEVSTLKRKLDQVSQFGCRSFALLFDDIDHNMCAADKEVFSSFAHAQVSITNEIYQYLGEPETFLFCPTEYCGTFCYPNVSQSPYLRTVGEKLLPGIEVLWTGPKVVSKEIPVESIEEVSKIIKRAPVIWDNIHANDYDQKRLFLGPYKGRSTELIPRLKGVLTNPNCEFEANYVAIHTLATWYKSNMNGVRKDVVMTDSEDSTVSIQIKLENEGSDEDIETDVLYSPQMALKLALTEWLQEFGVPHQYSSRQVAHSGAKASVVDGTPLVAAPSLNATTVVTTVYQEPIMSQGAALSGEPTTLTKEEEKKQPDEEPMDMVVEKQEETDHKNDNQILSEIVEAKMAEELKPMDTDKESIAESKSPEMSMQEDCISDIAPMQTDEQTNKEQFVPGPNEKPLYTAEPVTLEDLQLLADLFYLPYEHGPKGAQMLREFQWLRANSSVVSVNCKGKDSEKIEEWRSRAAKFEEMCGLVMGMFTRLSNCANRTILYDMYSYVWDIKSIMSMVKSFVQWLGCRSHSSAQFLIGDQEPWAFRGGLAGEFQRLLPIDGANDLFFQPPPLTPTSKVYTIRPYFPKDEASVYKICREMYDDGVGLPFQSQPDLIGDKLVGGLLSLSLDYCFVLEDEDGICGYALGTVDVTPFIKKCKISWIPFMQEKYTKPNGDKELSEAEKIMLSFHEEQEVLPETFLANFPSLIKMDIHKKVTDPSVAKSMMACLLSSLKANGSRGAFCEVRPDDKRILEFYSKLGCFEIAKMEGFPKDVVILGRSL

Experiment [1] deals with recombinant human Meningioma Expressed Antigen 5 (MGEA5), also referred to as O-GlcNAcase (OGA) (Homo sapiens, UniProt O60502). Put plainly: OGA biochemical assay: inhibition of FM-GlcNAc hydrolysis, fluorescence; protocol A (10 nM OGA, 1 h) or protocol B (2 nM OGA, 6 h). Particulars: Enzymatic protocol B (2 nM OGA, 6 h). The source says: The assay is based on the inhibition of the hydrolysis of fluorescein mono-3-D-N-Acetyl-Glucosamine (FM-GlcNAc) (Mariappa et al. 2015, Biochem J 470:255) by the recombinant human Meningioma Expressed Antigen 5 (MGEA5), also referred to as O-GlcNAcase (OGA). The hydrolysis FM-GlcNAc (Marker Gene technologies, cat # M1485) results in the formation of ß-D-N-glucosamineacetate and fluorescein. The fluorescence of the latter can be measured at excitation wavelength 485 nm and emission wavelength 538 nm. An increase in enzyme activity results in an increase in fluorescence signal. Full length OGA enzyme was purchased at OriGene (cat # TP322411). The enzyme was stored in 25 mM Tris.HCl, pH 7.3, 100 mM glycine, 10% glycerol at −20° C. Thiamet G and GlcNAcStatin were tested as reference compounds (Yuzwa et al. 2008 Nature Chemical Biology 4:483; Yuzwa et al. 2012 Nature Chemical Biology 8:393). The assay was performed in 200 mM Citrate/phosphate buffer supplemented with 0.005% Tween-20. 35.6 g Na2HPO42H2O (Sigma, # C0759) were dissolved in 1 L water to obtain a 200 mM solution. 19.2 g citric acid (Merck, #1.06580) was dissolved in 1 L water to obtain a 100 mM solution. pH of the sodiumphosphate solution was adjusted with the citric acid solution to 7.2. The buffer to stop the reaction consists of a 500 mM Carbonate buffer, pH 11.0. 734 mg
FM-GlcNAc were dissolved in 5.48 mL DMSO to obtain a 250 mM solution and was stored at −20° C. OGA was used at a 10 nM (protocol A) or 2 nM (protocol B) concentration and FM-GlcNAc at a 100 uM final concentration. Dilutions were prepared in assay buffer.
50 nl of a compound dissolved in DMSO was dispensed on Black Proxiplate™ 384 Plus Assay plates (Perkin Elmer, #6008269) and 3 μl fl-OGA enzyme mix added subsequently. Plates were pre-incubated for 60 min at room temperature and then 2 μl FM-GlcNAc substrate mix added. […] Plates were briefly centrifuged for 1 min at 1000 rpm and incubate at room temperature for 1 h (10 nM OGA, protocol A) or 6 h (2 nM OGA, protocol B). To stop the reaction 5 μl STOP buffer were added and plates centrifuge again 1 min at 1000 rpm. Fluorescence was quantified in the Thermo Scientific Fluoroskan Ascent or the PerkinElmer EnVision with excitation wavelength 485 nm and emission wavelength 538 nm.
For analysis a best-fit curve is fitted by a minimum sum of squares method. From this an IC50 value and Hill coefficient was obtained. High control (no inhibitor) and low control (saturating concentrations of standard inhibitor) were used to define the minimum and maximum values.

The test system of experiment [2] is OGA in HEK293 cells inducible for P301L mutant human Tau (isoform 2N4R). Put plainly: OGA cellular assay: immunocytochemical detection of O-GlcNAcylated proteins (CTD110.6 antibody) after 6 h incubation. Particulars: for Cellular Emax (%): maximum = Thiamet G 200 uM. How it is done:
HEK293 cells inducible for P301L mutant human Tau (isoform 2N4R) were established at Janssen. Thiamet-G was used for both plate validation (high control) and as reference compound (reference EC50 assay validation). OGA inhibition is evaluated through the immunocytochemical (ICC) detection of O-GlcNAcylated proteins by the use of a monoclonal antibody (CTD110.6; Cell Signaling, #9875) detecting O-GlcNAcylated residues as previoulsy described (Dorfmueller et al. 2010 Chemistry & biology, 17:1250). Inhibition of OGA will result in an increase of O-GlcNAcylated protein levels resulting in an increased signal in the experiment. Cell nuclei are stained with Hoechst to give a cell culture quality control and a rough estimate of immediate compounds toxicity, if any. ICC pictures are imaged with a Perkin Elmer Opera Phenix plate microscope and quantified with the provided software Perkin Elmer Harmony 4.1.
Cells were propagated in DMEM high Glucose (Sigma, # D5796) following standard procedures. 2 days before the cell assay cells are split, counted and seeded in Poly-D-Lysine (PDL) coated 96-wells (Greiner, #655946) plate at a cell density of 12,000 cells per cm^2 (4,000 cells per well) in 100 μl of Assay Medium (Low Glucose medium is used to reduce basal levels of GlcNAcylation) (Park et al. 2014 The Journal of biological chemistry 289:13519). At the day of compound test medium from assay plates was removed and replenished with 90 μl of fresh Assay Medium. 10 μl of compounds at a 10 fold final concentration were added to the wells. Plates were centrifuged shortly before incubation in the cell incubator for 6 hours. DMSO concentration was set to 0.2%. Medium is discarded by applying vacuum. For staining of cells medium was removed and cells washed once with 100 μl D-PBS (Sigma, # D8537). From next step onwards unless other stated assay volume was always 50 μl and incubation was performed without agitation and at room temperature. Cells were fixed in 50 μl of a 4% paraformaldehyde (PFA, Alpha aesar, #043368) PBS solution for 15 minutes at room temperature. […] Before analysis samples were washed 2 times manually for 5 minutes in ICC base buffer.
Imaging is performed using Perkin Elmer Phenix Opera using a water 20× objective and recording 9 fields per well. Intensity readout at 488 nm is used as a measure of O-GlcNAcylation level of total proteins in wells. To assess potential toxicity of compounds nuclei were counted using the Hoechst staining. IC50-values are calculated using parametric non-linear regression model fitting. As a maximum inhibition Thiamet G at a 200 uM concentration is present on each plate. In addition, a concentration response of Thiamet G is calculated on each plate.

`CC(=O)Nc1ncc(CN2CC[C@H](Cc3nc(C)cnc3C)C2)s1`: in experiment [1], the “Enzymatic Emax (%)” value was determined as 101.7% and the “Enzymatic hOGA; pIC50” value stood at 8.32. Besides, in experiment [2], the “Cellular hOGA; pEC50” value turned out to be 7.22 and the “Cellular Emax (%)” value is listed as 108.9%.
Take `Cc1cc(C[C@H]2CCN(Cc3nc4ccccc4n3C)C2)cc(C)n1`: in experiment [1] (tested form: dihydrochloride), the “Enzymatic Emax (%)” value is 26% and the “Enzymatic hOGA; pIC50” value is listed as less than 5.
In the case of `CC(=O)Nc1ncc(CN2CCC[C@H](COc3cc(C)nc(C)c3)C2)s1`, in experiment [1], the “Enzymatic Emax (%)” value is listed as 102.1% and the “Enzymatic hOGA; pIC50” value is on record as 8.36. Besides, in experiment [2], the “Cellular hOGA; pEC50” value is 8.61 and the “Cellular Emax (%)” value is 103.6%.
As to `Cc1cc(C[C@H]2CCN(Cc3cc4ccccc4n3C)C2)cc(C)n1`, in experiment [1] (tested form: dihydrochloride), the “Enzymatic Emax (%)” value is 11.7% and the “Enzymatic hOGA; pIC50” value is given as less than 5.
